Data published in patent publication US10736883B2, “Triazole furan compounds as agonists of the APJ receptor” (AMGEN INC., priority 2016, dated 2020).

Experiments:
[1] = cited from earlier work
[2] = target: human APJ-AT1R (angiotensin Type 1) double stable CHO cell line (Homo sapiens (Human), UniProt P30556+P35414); experiment: IP1 accumulation (TR-FRET), AngII concentration series with fixed pyrapelin-13, APJ-AT1R double stable CHO cells; format: cell-based; settings: different concentrations of AngII, fixed concentration of pyrapelin-13, APJ and AT1R co-expressed
[3] = target: human APJ receptor expressed in the CHO cell line (Homo sapiens (Human), UniProt P35414); experiment: IP1 accumulation (TR-FRET), AngII concentration series with fixed pyrapelin-13, APJ CHO cells; format: cell-based; settings: different concentrations of AngII, fixed concentration of pyrapelin-13, human APJ receptor expressed alone

Substance | plasma half-life [1] [min] | positive cooperativity on AT1R (IP1 accumulation) [2] | positive cooperativity (IP1 accumulation) [3]
Apelin-13 | < 5 |  | 
pyroglutamated apelin-13 [pyrapelin-13] |  | induces the positive cooperativity on the AT1R | no positive cooperativity observed
